# Reference: US9458140B2, “Furanone compounds as kinase inhibitors” (Eternity Bioscience Inc., priority 2013, dated 2016)
# Amino acid sequences for entries named in this document (tags omitted).
# UniProt P15056, whole entry V600E: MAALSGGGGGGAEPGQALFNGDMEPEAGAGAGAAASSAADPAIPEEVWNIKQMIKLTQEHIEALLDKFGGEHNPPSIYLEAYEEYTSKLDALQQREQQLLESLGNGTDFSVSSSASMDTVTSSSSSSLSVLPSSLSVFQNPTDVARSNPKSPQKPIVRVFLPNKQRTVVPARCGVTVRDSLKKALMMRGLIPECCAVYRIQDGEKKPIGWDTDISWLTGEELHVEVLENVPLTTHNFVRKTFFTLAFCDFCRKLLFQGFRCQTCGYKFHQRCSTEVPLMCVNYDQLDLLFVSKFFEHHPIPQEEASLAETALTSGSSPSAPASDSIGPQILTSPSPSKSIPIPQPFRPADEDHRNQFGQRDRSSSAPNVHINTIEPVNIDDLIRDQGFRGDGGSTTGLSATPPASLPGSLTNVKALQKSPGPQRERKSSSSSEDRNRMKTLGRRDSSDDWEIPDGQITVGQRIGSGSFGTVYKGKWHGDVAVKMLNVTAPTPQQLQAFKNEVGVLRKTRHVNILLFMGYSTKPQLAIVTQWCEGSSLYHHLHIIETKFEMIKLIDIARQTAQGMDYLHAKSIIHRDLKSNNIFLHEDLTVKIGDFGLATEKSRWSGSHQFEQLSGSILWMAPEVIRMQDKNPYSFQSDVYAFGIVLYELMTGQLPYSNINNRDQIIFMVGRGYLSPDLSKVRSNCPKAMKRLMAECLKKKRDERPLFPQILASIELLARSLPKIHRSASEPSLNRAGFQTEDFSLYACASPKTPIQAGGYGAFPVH
# What was measured:
# [1] = biological target: BRAF^V600E (Homo sapiens (Human), UniProt P15056, V600E); assay: BRAF^V600E enzymatic activity assay (LanthaScreen kinase assay); conditions: read-out: BRAF^V600E Lantha IC50; LanthaScreen TR-FRET, ATP 2 μM, 60 minutes, room temperature
# [2] = system: A375 cells; assay: Cell proliferation assay (CellTiter-Glo), A375 cell growth; conditions: read-out: A375 cell growth IC50, 3-day treatment
# Experimental: Cell proliferation assay: A375, Colo-205, Calu-6, and SW-480 cells were purchased from American Type Culture Collection (USA). All cells were cultured in the recommended medium and serum concentration. Cells were maintained at 37° C. in a humidified atmosphere with 5% CO2. For cell proliferation assay, cells were seeded in 96-well pates at a density of 1,000 to 5,000 cells per well and cultured overnight at 37° C. in a medium supplemented with 5-10% FBS. On the next day, the test articles at various concentrations or vehicle control (1% DMSO) were added into cell culture. After 3-day treatment, the growth of cells was assayed by the CellTiter-Glo® Luminestceaent Cell Viability Assay (Promega). IC50 value was calculated using GraphPad Prism by plotting the logarithm of the concentration versus percent inhibition of cell growth.
compound,measurement,setting,value
CC1(C)OC(c2ccnc(N)n2)=C(c2cccc(NS(=O)(=O)c3c(F)cccc3F)c2F)C1=O,IC50,[1],160 nM
same,IC50,[2],970 nM
